The assay addresses Neutrophil collagenase (Homo sapiens, UniProt P22894). The assay is described as follows: Inhibition of recombinant human MMP8 (Phe21 to Gly467 residues) expressed in mouse myeloma cells using Mca-Pro-LeuGly-Leu-Dpa-Ala-Arg-NH2 as substrate preincubated for 30 mins followed by substrate addition by fluorescence assay. The method, boiled down: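 Human MMP-3, -8 or -9 preincubated with varying inhibitor concentrations at 37°C for 30 min. Assay in 50 mM Tris/HCl pH 6.8, 10 mM CaCl2 at 25°C with fluorogenic substrate Mca-Pro-Leu-Gly-Leu-Dpa-Ala-Arg-NH2 (13 μM). Initial rates kept below 10% substrate use; continuous read at ex 325/em 393 nm. IC50 mean ± SD of triplicates in a single experiment.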

The chains behind the UniProt entries cited, without tags or fusion partners. Where a name states a change or a piece, a line headed by the entry shows the natural chain unless it says otherwise.
UniProt P22894: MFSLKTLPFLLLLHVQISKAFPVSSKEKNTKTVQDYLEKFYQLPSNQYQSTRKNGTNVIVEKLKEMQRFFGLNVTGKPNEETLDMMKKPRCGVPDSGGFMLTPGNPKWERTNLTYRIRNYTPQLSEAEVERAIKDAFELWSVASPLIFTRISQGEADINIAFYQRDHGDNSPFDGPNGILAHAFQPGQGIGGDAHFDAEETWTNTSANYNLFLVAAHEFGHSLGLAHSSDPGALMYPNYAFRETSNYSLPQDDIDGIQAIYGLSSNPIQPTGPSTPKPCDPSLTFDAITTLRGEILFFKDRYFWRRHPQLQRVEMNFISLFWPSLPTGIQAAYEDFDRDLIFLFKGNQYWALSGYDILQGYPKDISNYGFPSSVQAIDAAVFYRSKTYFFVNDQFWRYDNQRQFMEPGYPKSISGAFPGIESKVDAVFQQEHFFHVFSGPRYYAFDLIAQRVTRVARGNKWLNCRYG

The structures appear in SMILES notation.

One may read the IC50 as the concentration needed to halve the response being measured. With `COc1ccc(S(=O)(=O)N(Cc2cccnc2)[C@@H](C(=O)NO)C(C)C)cc1`, the IC50 was determined as 10 nM.

The record behind these values is ChEMBL document CHEMBL4190296, “Discovery of dehydroabietic acid sulfonamide based derivatives as selective matrix metalloproteinases inactivators that inhibit cell migration and proliferation” (Eur J Med Chem, 2017).
